Reference: patent US20150141411A1, “SUBSTITUTED 3,4-DIHYDRO-2H-PYRIDO[1,2-A]PYRAZINE-1,6-DIONE DERIVATIVES USEFUL FOR THE TREATMENT OF (INTER ALIA) ALZHEIMER'S DISEASE” (Janssen Pharmaceuticals, Inc., priority 2012, published 2015)

How the values were obtained:
[1] = tested on: Aβ42; test: In vivo efficacy: brain soluble Aβ42 in non-transgenic rodents (MSD electrochemiluminescence multiplex); conditions: dose 30 mg/kg oral dosing, brain soluble fraction, animals sacrificed after 4 h
Source text: (§1) To determine whether acute administration of an Aβ42 lowering agent would reduce Aβ42 levels in vivo, non-transgenic rodents, e.g. mice or rats were used. Animals treated with the Aβ42 lowering agent were examined and compared to those untreated or treated with vehicle and brain levels of soluble Aβ42, Aβ40, Aβ38, and Aβ37 were quantitated by Meso Scale Discovery's (MSD) electrochemiluminescence detection technology. Treatment periods varied from hours (h) to days and were adjusted based on the results of the Aβ42 lowering once a time course of onset of effect could be established.
(§2) A typical protocol for measuring Aβ42 lowering in vivo is shown but it is only one of many variations that could be used to optimize the levels of detectable Aβ. For example, Aβ42 lowering compounds were formulated in 20% of Captisol® (a sulfo-butyl ether of β-cyclodextrin) in water or 20% hydroxypropyl βcyclodextrin. The Aβ42 lowering agents were administered as a single oral dose or by any acceptable route of administration to overnight fasted animals. After 4 h, the animals were sacrificed and Aβ42 levels were analysed.
(§3) Blood was collected by decapitation and exsanguinations in EDTA-treated collection tubes. Blood was centrifuged at 1900 g for 10 minutes (min) at 4° C. and the plasma recovered and flash frozen for later analysis. The brain was removed from the cranium and hindbrain. The cerebellum was removed and the left and right hemisphere were separated. The left hemisphere was stored at −18° C. for quantitative analysis of test compound levels. The right hemisphere was rinsed with phosphate-buffered saline (PBS) buffer and immediately frozen on dry ice and stored at −80° C. until homogenization for biochemical assays.
(§4) Mouse brains from non-transgenic animals were resuspended in 8 volumes of 0.4% DEA (diethylamine)/50 mM NaCl containing protease inhibitors (Roche-11873580001 or 04693159001) per gram of tissue, e.g. for 0.158 g brain, add 1.264 ml of 0.4% DEA. All samples were homogenized in the FastPrep-24 system (MP Biomedicals) using lysing matrix D (MPBio #6913-100) at 6 m/s for 20 seconds. […] Nine parts of supernatant were neutralized with 1 part 0.5 M Tris-HCl pH 6.8 and used to quantify Aβ.
(§5) To quantify the amount of Aβ42, Aβ40, Aβ38, and Aβ37 in the soluble fraction of the brain homogenates, simultaneous specific detection of Aβ42, Aβ40, Aβ38, and Aβ37 was performed using MSD's electro-chemiluminescence multiplex detection technology. […] Following this incubation and subsequent wash steps the assay was finished by adding read buffer according to the manufacturer's instructions (Meso Scale Discovery, Gaitherburg, Md.).
(§6) The SULFO-TAG emits light upon electrochemical stimulation initiated at the electrode. MSD Sector instrument SI6000 was used for signal read-out. […]

[2] = tested on: Aβ40; test: In vivo efficacy: brain soluble Aβ40 in non-transgenic rodents (MSD electrochemiluminescence multiplex); conditions: dose 30 mg/kg oral dosing, brain soluble fraction, animals sacrificed after 4 h
Source text: as §1, §2, §3, §4, §5, §6

[3] = untreated animals (Ctrl) set at 100
[4] = untreated animals (Ctrl) set at 100, tested form: HCl

| Structure (SMILES) | Aβ42 (% vs Ctrl)_Mean [1, 3] | Aβ40 (% vs Ctrl)_Mean [2, 3] | Aβ42 (% vs Ctrl)_Mean [1, 4] | Aβ40 (% vs Ctrl)_Mean [2, 4] |
| --- | --- | --- | --- | --- |
| Cc1cn(-c2ccc3n(c2=O)CCN(CC2(c4cc(C(F)(F)F)cc(C(F)(F)F)c4)CCC2)C3=O)cn1 | 80 % vs Ctrl | 97 % vs Ctrl |  |  |
| Cc1cn(-c2ccc3n(c2=O)C[C@@H](C)N(C(C)c2cc(Cl)cc(C(F)(F)F)c2)C3=O)cn1 (single isomer, unassigned) [130] | 67 % vs Ctrl | 114 % vs Ctrl |  |  |
| Cc1cn(-c2ccc3n(c2=O)C[C@@H](C)N(CC2(c4cc(C(F)(F)F)cc(C(F)(F)F)c4)CC2)C3=O)cn1 |  |  | 41 % vs Ctrl | 57 % vs Ctrl |
| Cc1cn(-c2ccc3n(c2=O)CCN(CC2(c4cc(C(F)(F)F)cc(C(F)(F)F)c4)CC2)C3=O)cn1 | 66 % vs Ctrl | 84 % vs Ctrl |  |  |
